pIC50: −log10 of the molar value. Like-named read-outs stand apart in the source and are kept apart here.
Legend:
[1] = molecular target: JAK1 (Homo sapiens (Human), UniProt P23458); assay: Jak Biochemical HTRF Assay, JAK1
From the text: (§1) Jak Biochemical HTRF Assay Protocol
(§2) Subsequent reagent additions employed an Agilent Bravo.

Protein sequences, listed by entry. Tags and fused reporters are not part of them. Residues count along the entry.
UniProt P23458, 875-1153: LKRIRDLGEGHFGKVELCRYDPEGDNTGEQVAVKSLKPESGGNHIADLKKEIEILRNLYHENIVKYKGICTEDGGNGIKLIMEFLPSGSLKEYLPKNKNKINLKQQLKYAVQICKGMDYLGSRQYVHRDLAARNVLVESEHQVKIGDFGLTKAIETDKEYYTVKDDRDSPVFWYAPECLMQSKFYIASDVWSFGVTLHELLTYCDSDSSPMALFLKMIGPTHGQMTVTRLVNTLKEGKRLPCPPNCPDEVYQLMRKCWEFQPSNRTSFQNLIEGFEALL
UniProt O60674, 849-1124: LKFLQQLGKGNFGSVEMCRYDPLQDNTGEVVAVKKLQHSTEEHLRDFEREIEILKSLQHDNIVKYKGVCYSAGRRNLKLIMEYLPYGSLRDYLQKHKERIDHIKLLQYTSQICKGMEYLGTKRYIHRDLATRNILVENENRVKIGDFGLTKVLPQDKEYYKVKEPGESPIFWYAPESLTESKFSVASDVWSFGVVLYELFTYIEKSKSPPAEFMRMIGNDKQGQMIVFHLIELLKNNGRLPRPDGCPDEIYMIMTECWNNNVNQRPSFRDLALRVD

[2] = molecular target: JAK2 (Homo sapiens (Human), UniProt O60674); assay: Jak Biochemical HTRF Assay, JAK2
From the text: as §1, §2

[3] = HTRF biochemical assay, GST-tagged catalytic domain, top concentration tested […]

Structure (SMILES) | pIC50 [1, 3] | pIC50 [2, 3] | pIC50 [1] | other results
N#CC[C@]1(n2cc(C(N)=O)c(Nc3ccc(F)cc3)n2)CC[C@H](n2cc(C3CC3)nn2)CC1 [Example 44-1, cis or Trans 1-[1-(cyanomethyl)-4-(4-cyclopropyl-1H-1,2,3-triazol-1-yl)cyclohexyl]-3-[(4-fluorophenyl)amino]-1H-pyrazole-4-carboxamide] | – | – | 6.81 | –
N#CCC1(n2cc(C(N)=O)c(Nc3ccc(F)cc3)n2)CCN(c2ccc(F)nc2)CC1 [Example 3-22, 1-[4-(cyanomethyl)-1-(6-fluoropyridin-3-yl)piperidin-4-yl]-3-[(4-fluorophenyl)amino]-1H-pyrazole-4-carboxamide] | – | 7.92 | – | –
N#CCC1(n2cc(C(N)=O)c(Nc3ccc(F)cc3)n2)CCC(Nc2cccc(Cl)c2)CC1 (stereo not drawn) [Example 40-46, Cis or trans 1-{4-[(3-chlorophenyl)aminol-1-(cyanomethyl)cyclohexyl}-3-[(4-fluorophenyl)amino]-1H-pyrazole-4-carboxamide] | – | – | 9.00 | pIC50 [2]: 7.22

Continued, in another order:

pIC50 [1, 3] | pIC50 [2, 3] | Structure (SMILES) | pIC50 [1] | other results
6.95 | – | C[C@H]1CN(C(=O)OC(C)(C)C)CC[C@]1(CC#N)n1cc(C(N)=O)c(Nc2ccccc2)n1 (single isomer, unassigned) [Example 48-2, tert-Butyl (3S,4R or 3R,4S)-4-[4-carbamoyl-3-(phenylamino)-1H-pyrazol-1-yl]-4-(cyanomethyl)-3-methylpiperidine-1-carboxylate] | – | –
7.89 | – | N#CCC1(n2cc(C(N)=O)c(Nc3ccccc3)n2)CCOCC1 [Example 6-5, 1-[4-(cyanomethyl)tetrahydro-2H-pyran-4-yl]-3-(phenylamino)-1H-pyrazole-4-carboxamide] | – | –
– | 7.42 | N#CCC1(n2cc(C(N)=O)c(Nc3ccnc(F)c3)n2)CCN(C(=O)OC2CCOC2)CC1 (stereo not shown) [Example 30-16, tetrahydrofuran-3-yl 4-{4-carbamoyl-3-[(2-fluoropyridin-4-yl)amino]-1H-pyrazol-1-yl}-4-(cyanomethyl)piperidine-1-carboxylate] | – | –

— patent US9328099B2, “Cyanomethylpyrazole carboxamides as janus kinase inhibitors” (Merck Sharp & Dohme Corp., priority 2011, dated 2016)
